Measured values from patent US20210179940A1, “WIDE TEMPERATURE RANGE AND HIGH PHOTOCHEMICAL STABILITY SMECTIC LIQUID CRYSTAL COMPOSITIONS WITH A MONOLAYER SMECTIC A PHASE (SMA1), METHOD OF OBTAINING THEREOF AND DEVICES UTILIZING THEREOF” (WOJSKOWA AKADEMIA TECHNICZNA, priority 2017, published 2021).

Experiment: solubility of ionic compounds in fluorobenzene
Settings: 25° C.
Description: Fluorobenzene was used as solvent because it is chemically similar to the liquid crystalline composition used here.
The examination was made in the following way: always the same mole amount of a ionic compound (0.00004 mol) was placed in 2 cm^3 of fluorobenzene. The mixture was mixed to dissolve the compound or to obtain equilibrium between the saturated solution and the solid. When a part of the compound was dissolved only, the sample of the saturated solution was taken (0.5 ml). The solvent was evaporated to dryness, the rest was weighted. Knowing the residue amount, the solubility was calculated.

solubility in C6H5F	Substance
0.0042 mol/dcm^3	complex of dibenzo-18-crown-6 ether with potassium bromide [IVb]
0.0104 mol/dcm^3	complex of 18-crown-6 ether with potassium bromide [IIIb]
